Source: article PMC3909575, “Purification and characterization of an extracellular laccase from solid-state culture of Pleurotus ostreatus HP-1” (2013)

Tested on: laccase
Assay: inhibition kinetics of purified laccase, Lineweaver-Burk

How did the Ki turn out when `[N-]=[N+]=N` was run?
Its Ki is 16.5 µM.
